Data as given in ChEMBL document CHEMBL5034035, “Discovery of an Oxycyclohexyl Acid Lysophosphatidic Acid Receptor 1 (LPA1) Antagonist BMS-986278 for the Treatment of Pulmonary Fibrotic Diseases” (J Med Chem, 2021).

Chains of the proteins cited; added tags and fusions are not shown. Lines headed by an entry give the natural chain unless they say otherwise; changes in a name come on top.
UniProt P61793: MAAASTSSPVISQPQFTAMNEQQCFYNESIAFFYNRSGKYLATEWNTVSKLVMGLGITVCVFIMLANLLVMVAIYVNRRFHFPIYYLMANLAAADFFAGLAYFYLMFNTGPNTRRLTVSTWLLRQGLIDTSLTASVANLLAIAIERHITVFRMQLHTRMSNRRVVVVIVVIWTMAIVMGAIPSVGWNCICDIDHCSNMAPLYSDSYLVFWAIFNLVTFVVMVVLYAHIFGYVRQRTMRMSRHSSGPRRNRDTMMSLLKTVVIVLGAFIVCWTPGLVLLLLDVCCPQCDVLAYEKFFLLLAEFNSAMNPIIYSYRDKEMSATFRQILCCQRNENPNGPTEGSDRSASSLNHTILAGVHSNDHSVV

Target: Lysophosphatidic acid receptor 1 (Mus musculus) (UniProt P61793)
Assay: Antagonist activity at mouse LPA1 receptor expressed in CHO cells assessed as inhibition of LPA stimulated calcium flux incubated for 20 mins followed by LPA stimulation and measured for 90 seconds
Assay type: functional, cell-based
Details: filed as antagonist

Cc1nc(-c2nnn(C)c2COC(=O)N(C)CC2CCC2)ccc1O[C@H]1CCC[C@H](C(=O)O)C1
Kb: 1.4 nM
